Measurements published in paper PMC11091220, “Metabolism-driven in vitro/in vivo disconnect of an oral ERɑ VHL-PROTAC” (Communications Biology, 2024).
pIC50: −log10 of the molar value.

Sequences of proteins named here, by UniProt entry; tags and fusion partners are left off. Residues count along the entry.
UniProt P03372, whole entry: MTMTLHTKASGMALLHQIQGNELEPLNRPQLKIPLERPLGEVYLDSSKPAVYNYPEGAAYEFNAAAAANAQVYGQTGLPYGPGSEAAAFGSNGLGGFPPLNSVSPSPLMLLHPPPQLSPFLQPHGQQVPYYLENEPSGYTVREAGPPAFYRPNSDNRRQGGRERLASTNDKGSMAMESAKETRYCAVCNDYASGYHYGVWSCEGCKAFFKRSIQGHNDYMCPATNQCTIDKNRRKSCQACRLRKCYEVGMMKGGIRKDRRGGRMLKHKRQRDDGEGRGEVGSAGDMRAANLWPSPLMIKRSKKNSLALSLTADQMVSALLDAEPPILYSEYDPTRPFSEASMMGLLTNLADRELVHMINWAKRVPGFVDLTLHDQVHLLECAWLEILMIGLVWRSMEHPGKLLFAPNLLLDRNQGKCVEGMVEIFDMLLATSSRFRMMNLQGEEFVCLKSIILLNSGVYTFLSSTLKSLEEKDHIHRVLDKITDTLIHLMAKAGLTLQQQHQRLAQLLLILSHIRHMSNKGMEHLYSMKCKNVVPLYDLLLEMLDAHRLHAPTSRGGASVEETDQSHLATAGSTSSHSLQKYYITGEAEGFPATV
UniProt P03372, 311-547 limits assumed: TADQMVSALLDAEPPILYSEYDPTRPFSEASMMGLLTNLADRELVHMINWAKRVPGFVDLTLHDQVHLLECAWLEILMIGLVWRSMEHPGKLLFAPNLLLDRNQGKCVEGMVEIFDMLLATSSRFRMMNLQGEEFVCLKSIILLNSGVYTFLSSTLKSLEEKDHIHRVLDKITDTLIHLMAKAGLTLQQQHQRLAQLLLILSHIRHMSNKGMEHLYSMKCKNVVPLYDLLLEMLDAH

Key:
ERα = ERα (Homo sapiens, UniProt P03372); assay: ERα high throughput imaging degradation assay in MCF7 cells; format: cell-based
Procedure: Cells were fixed, permeabilised and stained with anti-ERα (rabbit clone SP1, Thermo) and anti-PR (mouse clone PgR 636, Dako) antibodies followed by secondary AlexaFluor 594 goat anti-rabbit and AlexaFluor 488 goat anti-mouse IgG antibodies. Imaging was using the Thermo Cellinsight scanner and average fluorescence intensity was analysed using Genedata.

[1] = molecular target: recombinant human ERα ligand binding domain (LBD) (Homo sapiens, UniProt P03372); assay: ERα binding assay (LanthaScreen TR-FRET competition); conditions: read-out: ERa binding, Mean, Table S4 source data

Q: With Cc1ncsc1-c1ccc(CNC(=O)[C@@H]2C[C@@H](O)CN2C(=O)[C@@H](NC(=O)COCC2CC2COCCOc2cc(F)c([C@@H]3c4[nH]c5ccccc5c4C[C@@H](C)N3CC(C)(C)F)c(F)c2)C(C)(C)C)cc1 (single isomer, unassigned) [12] as the compound, how does the “ERa degradation, Dmax (%)” value (ERα; Table S4 source data) read?
A: 91%

Q: And the DC50 (ERα; read-out: ERα imaging degradation DC50, MCF7 cells, 20 to 24 hours)?
A: 0.7 nM

Q: And the pIC50 [1]?
A: 9.00
